Literature values in patent US20250205181A1, “ANANDAMIDE CYCLODEXTRIN INCLUSION COMPLEX VEHICLES” (CZAP RESEARCH AND DEVELOPMENT, LLC, priority 2021, published 2025).

Amino acid sequences for entries named in this document (tags omitted).
UniProt P20272, whole entry: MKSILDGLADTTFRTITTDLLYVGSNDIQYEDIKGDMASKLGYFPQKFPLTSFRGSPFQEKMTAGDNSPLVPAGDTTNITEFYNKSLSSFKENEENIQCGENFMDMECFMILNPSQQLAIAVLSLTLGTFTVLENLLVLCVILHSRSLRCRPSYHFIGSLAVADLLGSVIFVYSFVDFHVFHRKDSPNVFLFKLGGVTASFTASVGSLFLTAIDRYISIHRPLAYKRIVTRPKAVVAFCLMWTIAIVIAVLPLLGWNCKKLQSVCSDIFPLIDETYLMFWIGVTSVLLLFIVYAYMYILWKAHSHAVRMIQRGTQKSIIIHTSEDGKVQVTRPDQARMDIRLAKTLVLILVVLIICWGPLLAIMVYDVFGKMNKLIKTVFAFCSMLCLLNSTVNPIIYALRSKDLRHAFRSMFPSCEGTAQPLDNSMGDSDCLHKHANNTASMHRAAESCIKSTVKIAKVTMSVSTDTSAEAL

Target: CB1 receptor (Rattus norvegicus, UniProt P20272)
Details: literature value, Lin et al., J Med Chem 1998; cited from earlier work

For CCCCC/C=C\C/C=C\C/C=C\C/C=C\CCCC(=O)NCCO [anandamide, (5Z,8Z,11Z,14Z)-N-(2-hydroxyethyl)icosa-5,8,11,14-tetraenamide], the Ki is listed as less than 100 nM.
